Laboratory results published in publication PMC7176092, “Development of the first in vivo GPR17 ligand through an iterative drug discovery pipeline: A novel disease-modifying strategy for multiple sclerosis” (PLoS ONE, 2020).

The chains behind the UniProt entries cited, without tags or fusion partners. Residues count along the entry.
UniProt Q13255, 19-1194: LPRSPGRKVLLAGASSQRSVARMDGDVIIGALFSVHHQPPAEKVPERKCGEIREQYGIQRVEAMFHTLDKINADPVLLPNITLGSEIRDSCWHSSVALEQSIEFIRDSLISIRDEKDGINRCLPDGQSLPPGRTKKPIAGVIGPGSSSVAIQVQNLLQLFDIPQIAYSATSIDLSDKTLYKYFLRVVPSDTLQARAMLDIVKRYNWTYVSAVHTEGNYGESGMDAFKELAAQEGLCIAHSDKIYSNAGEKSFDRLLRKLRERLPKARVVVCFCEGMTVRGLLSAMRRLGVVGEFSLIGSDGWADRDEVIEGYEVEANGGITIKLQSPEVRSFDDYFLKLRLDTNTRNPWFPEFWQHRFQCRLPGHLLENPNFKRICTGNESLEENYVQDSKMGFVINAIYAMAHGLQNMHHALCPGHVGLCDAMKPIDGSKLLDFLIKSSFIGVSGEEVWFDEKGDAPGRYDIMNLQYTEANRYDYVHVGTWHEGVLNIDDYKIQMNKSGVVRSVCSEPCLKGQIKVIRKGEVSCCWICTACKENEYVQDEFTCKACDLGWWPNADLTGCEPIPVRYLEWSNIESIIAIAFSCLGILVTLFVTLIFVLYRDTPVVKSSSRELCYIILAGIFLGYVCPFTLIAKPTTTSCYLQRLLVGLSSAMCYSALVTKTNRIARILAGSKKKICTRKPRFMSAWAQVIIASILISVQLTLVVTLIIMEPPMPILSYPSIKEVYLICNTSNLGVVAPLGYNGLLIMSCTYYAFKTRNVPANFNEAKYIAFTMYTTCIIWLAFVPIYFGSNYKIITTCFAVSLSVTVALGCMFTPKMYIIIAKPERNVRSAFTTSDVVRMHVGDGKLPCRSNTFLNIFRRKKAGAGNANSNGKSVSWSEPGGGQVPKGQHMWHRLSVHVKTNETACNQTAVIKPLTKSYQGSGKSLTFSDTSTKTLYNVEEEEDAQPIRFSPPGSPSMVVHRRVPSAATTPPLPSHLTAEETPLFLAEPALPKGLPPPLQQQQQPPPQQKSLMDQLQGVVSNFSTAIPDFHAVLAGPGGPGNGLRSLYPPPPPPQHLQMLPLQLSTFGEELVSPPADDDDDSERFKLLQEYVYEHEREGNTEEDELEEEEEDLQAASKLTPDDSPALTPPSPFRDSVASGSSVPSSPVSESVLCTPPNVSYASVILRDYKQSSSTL

Molecular target: mGluR1 (Homo sapiens, UniProt Q13255)
Experiment: Binding assay mGluR1
Details: reference compound

N[C@@H](Cn1oc(=O)[nH]c1=O)C(=O)O [L-Quisqualate, reference compound]
IC50: 160 nM | Ki: 140 nM
